Test results as given in PubChem BioAssay AID504884 (Broad Institute, 2011).
This is a selection; strong and weak results do not stand in their true shares. The source made the active and inactive calls. Rule as the data show it: active = activity above about 50% (passing the limit was not always enough); inconclusive = no clear call, values can overlap the other calls.

tested on: DNA topoisomerase I (Yersinia pestis CO92); assay: Yersinia pestis topoisomerase I inhibitors, primary screen, biochemical, cleavage product accumulation, plate reader, single point (AID 504884); conditions: Y. pestis Topo-I cleavage product accumulation, at 10 µM, stronger effect = higher value

Compound	activity
CCC(=O)N(c1ccccc1)C1(COC)CCN(CCc2cccs2)CC1	inactive: 23.9%
CCC(=O)N(c1ccccc1)C1(COC)CCN(CCn2nnn(CC)c2=O)CC1	inactive: 3.79%
